Patent US20070036775A1, “Method of modulating or examining Ku70 levels in cells” (priority 2001, published 2007)

Columns and labels:
[1] = test system: HEK293T cells; test: UVC-irradiation-induced apoptosis in HEK293T cells, Hoechst staining; type: cell-based; conditions: HEK293T cells transfected with Ku70 construct, 200 J/m^2 UVC, 24 hours
Method: FIG. 2A: Ku70 suppressed STS-induced apoptosis in Hela cells. Hela cells (10^6 cells) were transfected with 0.5 μg pEGFP and 1.0 μg pCMV-2B (Vector), pCMV-2B-Ku70 (Ku70 wt), pCMV-2B-Ku701-535 (Ku701-535), or pCMV-2B-Ku70536-609 (Ku70536-609). One day following transfection, cells were treated with 200 nM STS and the number of apoptotic cells was counted as described in FIG. 1 after 24 hours of STS treatment. FIG. 2B: Ku70 suppressed UVC-induced apoptosis. HEK293T cells (10^6 cells) were transfected with 0.5 μg PEGFP and 1.0 μg pCMV-2B (Vector), pCMV-2B-Ku70 wt (Ku70 wt), or pCMV-2B-Ku70536-609 (Ku70536-609). One day following transfection, cells were exposed to 200 J/m^2 of UVC-irradiation. After 24 hours, apoptotic cells were counted as described in FIG. 1. […] Caspase activity was measured one day following transfection as described in Experimental Procedure. […] Caspase activity was assessed as described in Experimental Procedure. […] Cytochrome c released from mitochondria into cytosol was analyzed by subcellular fractionation followed by Western blot analysis of Cytochrome c (Cyt c) as well as mitochondrial FoF1-ATP-synthase subunit F1α (F1α) as described in Experimental Procedure.
FIG. 7A: Subcellular localization of Bax and Ku70. […] Control Group: Ku70 is detected both in the cytosol and the nucleus. Large proportion of Bax distributes in the cytosol and Bax is also detected in the nucleus. […]

[2] = test system: Caspase; test: STS-induced Caspase activation (DEVD-afc cleavage) in Hela cells; type: cell-based, human; conditions: HeLa cells transfected with Ku70 construct
Method: FIG. 2A: Ku70 suppressed STS-induced apoptosis in Hela cells. Hela cells (10^6 cells) were transfected with 0.5 μg pEGFP and 1.0 μg pCMV-2B (Vector), pCMV-2B-Ku70 (Ku70 wt), pCMV-2B-Ku701-535 (Ku701-535), or pCMV-2B-Ku70536-609 (Ku70536-609). One day following transfection, cells were treated with 200 nM STS and the number of apoptotic cells was counted as described in FIG. 1 after 24 hours of STS treatment. FIG. 2B: Ku70 suppressed UVC-induced apoptosis. HEK293T cells (10^6 cells) were transfected with 0.5 μg PEGFP and 1.0 μg pCMV-2B (Vector), pCMV-2B-Ku70 wt (Ku70 wt), or pCMV-2B-Ku70536-609 (Ku70536-609). One day following transfection, cells were exposed to 200 J/m^2 of UVC-irradiation. After 24 hours, apoptotic cells were counted as described in FIG. 1. FIG. 2C: Ku70 suppressed Bax-induced Caspase activation. […] Caspase activity was measured one day following transfection as described in Experimental Procedure. […] Caspase activity was assessed as described in Experimental Procedure. […] Cytochrome c released from mitochondria into cytosol was analyzed by subcellular fractionation followed by Western blot analysis of Cytochrome c (Cyt c) as well as mitochondrial FoF1-ATP-synthase subunit F1α (F1α) as described in Experimental Procedure. […]

## Ku70: human full length Ku70, 70 kDa subunit of Ku-complex (609 amino acids), expressed from pCMV-2B plasmid
[1]
  effect on UVC-irradiation-induced cell death: attenuated
[2]
  effect on STS-induced Caspase activation: attenuated
